From PMC9841521, “Subnanomolar Affinity and Selective Antagonism at α7 Nicotinic Receptor by Combined Modifications of 2-Triethylammonium Ethyl Ether of 4-Stilbenol (MG624)” (Journal of Medicinal Chemistry, 2022)

Amino acid sequences for entries named in this document (tags omitted). Residues count along the entry.
UniProt P36544, 23-502 limits assumed: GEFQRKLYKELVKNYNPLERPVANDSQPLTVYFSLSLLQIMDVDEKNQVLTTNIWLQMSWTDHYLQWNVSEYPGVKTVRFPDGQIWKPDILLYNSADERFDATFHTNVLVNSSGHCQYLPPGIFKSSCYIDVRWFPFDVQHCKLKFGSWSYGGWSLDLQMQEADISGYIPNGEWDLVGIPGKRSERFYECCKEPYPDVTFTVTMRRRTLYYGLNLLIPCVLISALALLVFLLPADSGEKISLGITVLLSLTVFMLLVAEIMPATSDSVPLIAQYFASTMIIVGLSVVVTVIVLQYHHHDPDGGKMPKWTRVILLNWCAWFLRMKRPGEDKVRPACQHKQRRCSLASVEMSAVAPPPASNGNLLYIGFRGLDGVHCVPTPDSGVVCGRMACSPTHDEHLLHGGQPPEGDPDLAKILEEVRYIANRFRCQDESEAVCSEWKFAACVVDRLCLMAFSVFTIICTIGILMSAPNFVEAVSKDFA

Molecular target: human α7-nAChR (Homo sapiens, UniProt P36544)
Settings: read-out: α7-nAChR [125I]-αBgtx Ki; human α7 expressed in SH-SY5Y cells; confidence interval in parentheses

| SMILES | Ki [nM] |
| --- | --- |
| CC[N+](CC)(CC)CCOc1ccc(/C=C/c2ccc(Br)cc2)cc1 | 723 |
| CC[N+](CC)(CC)CCOc1ccc(/C=C/c2cccc(Br)c2)cc1 | 1040 |
| CC[N+](CC)(CC)CCOc1ccc(/C=C/c2cccc(OC)c2)cc1 | 621 |
| CC[N+](CC)(CC)CCOc1ccc(/C=C/c2ccccc2Br)cc1 | 525 |
| CC[N+](CC)(CC)CCOc1ccc(COc2ccccc2)cc1 | 2600 |
| CC[N+](CC)(CC)CCOc1ccccc1 [Compound 3, N,N,N-Triethyl-2-phenoxyethan-1-aminium Iodide] | 27000 |
| C=Cc1ccc(OCC[N+](CC)(CC)CC)cc1 [Compound 4, N,N,N-Triethyl-2-(4-vinylphenoxy)ethan-1-aminium Iodide] | 285 |
| CC[N+](CC)(CC)CCOc1ccc(-c2ccccc2)cc1 [Compound 5, 2-([1,1′-Biphenyl]-4-yloxy)-N,N,N-triethylethan-1-aminium Iodide] | 129 |
| CC[N+](CC)(CC)CCOc1ccc(CCc2ccccc2)cc1.[I-] [Compound 6, N,N,N-Triethyl-2-(4-phenethylphenoxy)ethan-1-aminium Iodide] | 1650 |
| CC[N+](CC)(CC)CCOc1ccc(C#Cc2ccccc2)cc1 [Compound 7, N,N,N-Triethyl-2-(4-(phenylethynyl)phenoxy)ethan-1-aminium Iodide] | 664 |
| CC[N+](CC)(CC)CCOc1ccc(-c2cccc3ccccc23)cc1.[I-] [Compound 9, N,N,N-Triethyl-2-(4-(naphthalen-1-yl)phenoxy)ethan-1-aminium Iodide] | 3110 |
| CC[N+](CC)(CC)CCOc1ccc(/C=C/c2cccc3ccccc23)cc1 [Compound 10, (E)-N,N,N-Triethyl-2-(4-(2-(naphthalen-1-yl)vinyl)phenoxy)ethan-1-aminium Iodide] | 1350 |
| CC[N+](CC)(CC)CCOc1ccc(/C=C/c2ccc3ccccc3c2)cc1 [Compound 11, (E)-N,N,N-Triethyl-2-(4-(2-(naphthalen-2-yl)vinyl)phenoxy)ethan-1-aminium Iodide] | 1000 |
| CC[N+](CC)(CC)CCOc1ccc(/C=C/c2cccc(C(F)(F)F)c2)cc1 [Compound 15, (E)-N,N,N-Triethyl-2-(4-(3-(trifluoromethyl)styryl)phenoxy)ethan-1-aminium Iodide] | 1520 |
| CC[N+](CC)(CC)CCOc1ccc(/C=C/c2ccc(C(F)(F)F)cc2)cc1 [Compound 16, (E)-N,N,N-Triethyl-2-(4-(4-(trifluoromethyl)styryl)phenoxy)ethan-1-aminium Iodide] | 1330 |
| CC[N+](CC)(CC)CCOc1ccc(/C=C/c2ccc(OC)cc2)cc1 [Compound 18, (E)-N,N,N-Triethyl-2-(4-(4-methoxystyryl)phenoxy)ethan-1-aminium Iodide] | 353 |
| CC[N+](CC)(CC)CCOc1ccc(/C=C/c2cccc(O)c2)cc1 [Compound 19, (E)-N,N,N-Triethyl-2-(4-(3-hydroxystyryl)phenoxy)ethan-1-aminium Iodide] | 573 |
| CC[N+](CC)(CC)CCOc1ccc(/C=C/c2ccc(O)cc2)cc1 [Compound 20, (E)-N,N,N-Triethyl-2-(4-(4-hydroxystyryl)phenoxy)ethan-1-aminium Iodide] | 342 |
| CC[N+](CC)(CC)CCOc1ccc(/C=C/c2cc(O)cc(O)c2)cc1 [Compound 22, (E)-2-(4-(3,5-Dihydroxystyryl)phenoxy)-N,N,N-triethylethan-1-aminium Iodide] | 242 |
| CC[N+](CC)(CC)CCOc1ccc(OCc2ccccc2)cc1 [Compound 23, 2-(4-(Benzyloxy)phenoxy)-N,N,N-triethylethan-1-aminium Iodide] | 1010 |
| CC[N+](CC)(CC)CCOc1ccc(NC(=O)c2ccccc2)cc1 [Compound 25, 2-(4-Benzamidophenoxy)-N,N,N-triethylethan-1-aminium Iodide] | 862 |
| CC[N+](CC)(CC)CCOc1ccc(C(=O)Nc2ccccc2)cc1 [Compound 26, N,N,N-Triethyl-2-(4-(phenylcarbamoyl)phenoxy)ethan-1-aminium Iodide] | 250 |
| CC[N+](CC)(CC)CCOc1ccc(/N=N/c2ccccc2)cc1.[I-] [Compound 27, (E)-N,N,N-Triethyl-2-(4-(phenyldiazenyl)phenoxy)ethan-1-aminium Iodide] | 526 |
| CC[N+](CC)(CC)CCOc1ccc(-c2ccc3cc[nH]c3c2)cc1.[I-] [Compound 30, 2-(4-(1H-Indol-6-yl)phenoxy)-N,N,N-triethylethan-1-aminium Iodide] | 184 |
| CC[N+](CC)(CC)CCOc1ccc(-c2ccc3occc3c2)cc1 [Compound 32, 2-(4-(Benzofuran-5-yl)phenoxy)-N,N,N-triethylethan-1-aminium Iodide] | 450 |
